Measurements published in patent US10844023B2 (Washington University, priority 2017, dated 2020).

Experiments:
Mfn2 null MEFs = experiment: Mitochondrial elongation (aspect ratio) fusogenicity assay; type: cell-based, mouse; parameters: % long compare to B: dose or concentration left out as unconfirmed
[1] = tested on: Mfn1/Mfn2 double null MEFs; experiment: Mitochondrial elongation in Mfn1/Mfn2 double null MEFs; type: cell-based, mouse

Compound: CC(Sc1nnc(C2CC2)n1-c1ccccc1)C(=O)Nc1sc2c(c1C(N)=O)CCC2 (stereo not drawn) [B01, 2-{2-[(5-cyclopropyl-4-phenyl-4H-1,2,4-triazol-3-yl)sulfanyl]propana-mido}-4H,5H,6H-cyclopenta[b]thiophene-3-carboxamide]
- % long compare to B (Mfn2 null MEFs; mitochondrial elongation relative to Cpd B (B01 = 100), Mfn2 null MEFs, compound overnight as printed (FIG. 48)): 100%

Compound: CC(Sc1nnc(C2CC2)n1-c1ccccc1)C(=O)Nc1sc2c(c1C(N)=O)CCC2 (stereo not drawn) [Cpd B, 2-{2-[(5-cyclopropyl-4-phenyl-4H-1,2,4-triazol-3-yl)sulfanyl]-propanamido}-4H, 5H,6H-cyclopenta[b]-thiophene-3-carboxamide]
- Mitochondrial elongation in absence of both mitofusins [1]: did not occur in the absence of both of their mitofusin targets

Compound: CC(Sc1nnc(C2CC2)n1-c1ccccc1)C(=O)Nc1sc2c(c1C(N)=O)CCC2 (stereo not drawn) [B1, 2-{2-[(5-cyclopropyl-4-phenyl-4H-1,2,4-triazol-3-yl)sulfanyl]propanamido}-4H,5H,6H-cyclopenta[b]thiophene-3-carboxamide]
- Fusogenicity Rank (Mfn2 null MEFs; rank order of aspect ratio among 44 soluble library compounds): 2
